Experiments:
[1] = target: FAM-APE1 mixed with PARP1 (APE1·PARP1) (human) (UniProt P27695); test: FRET or BRET; FAM-APE1 (40 nM) with XRCC1 or PARP1 added at a 3-fold molar excess, TMR-Polβ at sub-saturating concentrations
[2] = target: FAM-APE1 mixed with XRCC1 (APE1·XRCC1) (human) (UniProt P27695); test: as above
[3] = target: DNA polymerase β (rat) (UniProt P06766); test: dynamic light scattering; individual proteins or equimolar mixtures at 6 μM; 25 mM HEPES pH 7.5, 100 mM NaCl, 1 mM DTT; 24°C; hydrodynamic radius compared with predicted values
[4] = target: apurinic/apyrimidinic endonuclease 1 (human) (UniProt P27695); test: other fluorescence titration; FAM-APE1 (40 nM) premixed with model DNA (160 nM; AP-DNA, incised AP-DNA, gap-DNA or nick-DNA), titrated with the unlabelled partner; binding buffer with 10 mM EDTA; apparent
[5] = target: DNA polymerase β (rat) (UniProt P06766); test: FRET or BRET; FAM-labelled protein (donor, 40 nM, fixed) titrated with the TMR-labelled partner (acceptor); corrected for acceptor signal; E = 1 - Fda/Fd; EC50 is that of the TMR-labelled partner; 50 mM HEPES pH 8.0, 100 mM NaCl, 4 mM DTT; apparent
[6] = target: apurinic/apyrimidinic endonuclease 1 (human) (UniProt P27695); test: as above
[7] = target: DNA polymerase β (rat) (UniProt P06766); test: other fluorescence titration; FAM-labelled protein at 40 nM (fixed) titrated with the unlabelled partner; 50 mM HEPES pH 8.0, 100 mM NaCl, 4 mM DTT; excitation 485 nm, emission 520 nm; EC50 from a four-parameter logistic fit, an apparent equilibrium dissociation constant
[8] = target: apurinic/apyrimidinic endonuclease 1 (human) (UniProt P27695); test: as above
[9] = target: X-ray repair cross-complementing protein 1 (human) (UniProt P18887); test: other fluorescence titration; FAM-XRCC1 at 40 nM premixed with gap-DNA (32-mer 1-nt-gapped DNA) at a 3-fold molar excess, titrated with unlabelled Polβ; binding buffer; apparent
[10] = target: poly(ADP-ribose) polymerase 1 (human) (UniProt P09874); test: other fluorescence titration; FAM-Polβ or FAM-PARP1 (40 nM) premixed with model DNA (160 nM; incised AP-DNA, gap-DNA or nick-DNA), titrated with the unlabelled partner; binding buffer; apparent
[11] = target: X-ray repair cross-complementing protein 1 (human) (UniProt P18887); test: other fluorescence titration; TAF-labelled XRCC1 at 40 nM (fixed) titrated with the unlabelled partner; 50 mM HEPES pH 8.0, 100 mM NaCl, 4 mM DTT; EC50 from a four-parameter logistic fit, apparent
[12] = target: X-ray repair cross-complementing protein 1 (human) (UniProt P18887); test: FRET or BRET; FAM-labelled protein (donor, 40 nM, fixed) titrated with the TMR-labelled partner (acceptor); corrected for acceptor signal; E = 1 - Fda/Fd; EC50 is that of the TMR-labelled partner; 50 mM HEPES pH 8.0, 100 mM NaCl, 4 mM DTT; apparent
[13] = target: poly(ADP-ribose) polymerase 1 (human) (UniProt P09874); test: as above
[14] = target: poly(ADP-ribose) polymerase 1 (human) (UniProt P09874); test: other fluorescence titration; FAM-labelled protein at 40 nM (fixed) titrated with the unlabelled partner; 50 mM HEPES pH 8.0, 100 mM NaCl, 4 mM DTT; excitation 485 nm, emission 520 nm; EC50 from a four-parameter logistic fit, an apparent equilibrium dissociation constant
[15] = target: FAM-labeled human apurinic/apyrimidinic endonuclease 1 (human) (UniProt P27695); test: other fluorescence titration; 40 nM FAM-APE1 premixed with 160 nM AP-DNA, titrated with unlabeled partner; 50 mM HEPES pH 8.0, 100 mM NaCl, 4 mM DTT, 10 mM EDTA; EC50 from four-parameter fit, apparent
[16] = target: FAM-labeled human apurinic/apyrimidinic endonuclease 1 (human) (UniProt P27695); test: other fluorescence titration; 40 nM FAM-APE1 premixed with 160 nM gap-DNA, titrated with unlabeled partner; 50 mM HEPES pH 8.0, 100 mM NaCl, 4 mM DTT, 10 mM EDTA; EC50 from four-parameter fit, apparent
[17] = target: FAM-labeled human apurinic/apyrimidinic endonuclease 1 (human) (UniProt P27695); test: other fluorescence titration; 40 nM FAM-APE1 premixed with 160 nM nick-DNA, titrated with unlabeled partner; 50 mM HEPES pH 8.0, 100 mM NaCl, 4 mM DTT, 10 mM EDTA; EC50 from four-parameter fit, apparent
[18] = target: FAM-labeled human apurinic/apyrimidinic endonuclease 1 (human) (UniProt P27695); test: other fluorescence titration; 40 nM FAM-APE1 premixed with 160 nM incised AP-DNA, titrated with unlabeled partner; 50 mM HEPES pH 8.0, 100 mM NaCl, 4 mM DTT, 10 mM EDTA; EC50 from four-parameter fit, apparent
[19] = target: FAM-labeled human poly(ADP-ribose) polymerase 1 (human) (UniProt P09874); test: other fluorescence titration; 40 nM FAM-labeled protein (FAM-Polβ or FAM-PARP1) premixed with 160 nM gap-DNA, titrated with unlabeled partner; 50 mM HEPES pH 8.0, 100 mM NaCl, 4 mM DTT; EC50 from four-parameter fit, apparent
[20] = target: FAM-labeled human poly(ADP-ribose) polymerase 1 (human) (UniProt P09874); test: other fluorescence titration; 40 nM FAM-labeled protein (FAM-Polβ or FAM-PARP1) premixed with 160 nM nick-DNA, titrated with unlabeled partner; 50 mM HEPES pH 8.0, 100 mM NaCl, 4 mM DTT; EC50 from four-parameter fit, apparent

Substance: DNA polymerase β (from UniProt P06766 1-335) (enzyme)
- FRET efficiency E [1]: 0.06
- FRET efficiency E [2]: 0.08
- stoichiometry N [3]: 2
- EC50 with AP-DNA / EC50 without DNA [4]: 1.1
- EC50 with gap-DNA / EC50 without DNA [4]: 1.3
- EC50 with incised AP-DNA / EC50 without DNA [4]: 2
- EC50 with nick-DNA / EC50 without DNA [4]: 1.8
- EC50 [5]: 170 nM
- FRET efficiency E [5]: 0.35
- EC50 [6]: 93 nM
- FRET efficiency E [6]: 0.16
- EC50 [7]: 160 nM
- EC50 [8]: 84 nM

Substance: DNA polymerase β (from UniProt P06766 1-335) (enzyme; other documents disagree on this pair)
- EC50 [9]: 23 nM
- EC50 with gap-DNA / EC50 without DNA [10]: 1
- EC50 with nick-DNA / EC50 without DNA [10]: 1.1
- EC50 [11]: 25 nM
- EC50 [12]: 31 nM
- FRET efficiency E [12]: 0.41
- EC50 [13]: 110 nM
- FRET efficiency E [13]: 0.28
- EC50 [14]: 110 nM

Substance: X-ray repair cross-complementing protein 1 (from UniProt P18887 1-633) (natural protein)
- EC50 with AP-DNA / EC50 without DNA [4]: 1
- EC50 with gap-DNA / EC50 without DNA [4]: 0.67
- EC50 with incised AP-DNA / EC50 without DNA [4]: 1.1
- FRET efficiency E [6]: 0.14

Substance: rat DNA polymerase β (from UniProt P06766 1-335) (enzyme)
- EC50 [15]: 90 nM
- EC50 [16]: 110 nM
- EC50 [17]: 150 nM
- EC50 [18]: 170 nM

Substance: rat DNA polymerase β (from UniProt P06766 1-335) (enzyme; other documents disagree on this pair)
- EC50 [19]: 110 nM
- EC50 [20]: 120 nM
